# Tested on: zebrafish (wild-type and SQW mutant strains)
# Test: carcinogenesis assay
substance,measurement,setting,value
N-methyl-N-nitro-N-nitrosoouanidine,fish that developed tumors,"MNNG 0.5, 1.0 and 2.0 ppm, DMBA 2.5, 5.0 and 10.0 ppm",7.8%
same,tumor types,wild-type fish,more mesenchymal and testicular tumors
